Results reported in patent US4209588A, “Process for producing new antitumor anthracycline antibiotics” (Zaidan Hojin Biseibutsu Kagaku Kenkyu Kai, priority 1976, dated 1980).

Experiments:
mouse leukemia L1210 = assay: Therapeutic effectiveness against mouse leukemia L1210 (survival time); details: L1210, ip, 720 h, read-out: Prolongation of the survival time (% T/C)
Solubility = details: stated by reference to MA 144-G1
[1] = tested on: RNA synthesis in L1210 cells; assay: RNA synthesis in cultured L1210 cells (14C incorporation); details: Mus musculus, L1210, 1 h, read-out: % Inhibition, Synthesis of RNA
[2] = tested on: DNA synthesis in L1210 cells; assay: DNA synthesis in cultured L1210 cells (14C incorporation); details: Mus musculus, L1210, 1 h, read-out: % Inhibition, Synthesis of DNA

SMILES	response vs control in vivo at 0.15 mg/kg (mouse leukemia L1210) [%]	response vs control in vivo at 0.6 mg/kg (mouse leukemia L1210) [%]	response vs control in vivo at 1.25 mg/kg (mouse leukemia L1210) [%]	Solubility (Solubility)	further results
CC[C@@]1(O)C[C@H](O[C@H]2C[C@H](N(C)C)[C@H](O[C@H]3C[C@H](O)[C@H](O[C@H]4C[C@H](O)[C@H](O)[C@H](C)O4)[C@H](C)O3)[C@H](C)O2)c2c(cc3c(c2O)C(=O)c2c(O)ccc(O)c2C3=O)[C@H]1C(=O)OC [MA 144-U2]	110	135	112		
CC[C@@]1(O)C[C@H](O[C@H]2C[C@H](N(C)C)[C@H](O[C@H]3C[C@H](O)[C@H](O[C@H]4C[C@H](O)[C@H](O)[C@H](C)O4)[C@H](C)O3)[C@H](C)O2)c2c(cc3c(c2O)C(=O)c2c(O)cccc2C3=O)[C@H]1C(=O)OC [MA 144-U1]				Same as MA 144-G1	
CC[C@@]1(O)C[C@H](O[C@H]2C[C@H](N(C)C)[C@H](O[C@H]3C[C@H](O)[C@H](OC4CCC(=O)C(C)O4)[C@H](C)O3)[C@H](C)O2)c2c(cc3c(c2O)C(=O)c2c(O)cccc2C3=O)[C@H]1C(=O)OC (stereo partly drawn) [D-cinerulosyl-2-deoxy-L-fucosyl-L-rhodosaminyl-alkavinone]	101	130	145		response vs control in vivo at 0.3 mg/kg (mouse leukemia L1210): 118%; response vs control in vivo at 2.5 mg/kg (mouse leukemia L1210): 215%; response vs control in vivo at 5 mg/kg (mouse leukemia L1210): 187%
CC[C@@]1(O)C[C@H](O[C@H]2C[C@H](N(C)C)[C@H](O[C@H]3C[C@H](O)[C@H](O[C@H]4CC[C@H](O)[C@H](C)O4)[C@H](C)O3)[C@H](C)O2)c2c(cc3c(c2O)C(=O)c2c(O)cccc2C3=O)[C@H]1C(=O)OC [MA 144-N1]				Same as MA 144-G1	inhibition at 0.5 µg/mL [1]: 74.4%; inhibition at 1 µg/mL [2]: 57.4%
CC[C@@]1(O)C[C@H](O[C@H]2C[C@H](NC)[C@H](O[C@H]3C[C@H](O)[C@H](O[C@H]4CCC(=O)[C@H](C)O4)[C@H](C)O3)[C@H](C)O2)c2c(cc3c(c2O)C(=O)c2c(O)cccc2C3=O)[C@H]1C(=O)OC [MA 144-L]				Same as MA 144-G1	inhibition at 0.5 µg/mL [1]: 39.7%; inhibition at 1 µg/mL [2]: 11.3%
CC[C@@]1(O)C[C@H](O[C@H]2C[C@H](N(C)C)[C@H](O[C@H]3C[C@H](O)[C@H](O)[C@H](C)O3)[C@H](C)O2)c2c(cc3c(c2O)C(=O)c2c(O)cccc2C3=O)[C@H]1C(=O)OC [MA 144-S1, 2-deoxy-L-fucosyl-L-rhodosaminyl-aklavinone]				Same as MA 144-G1	
CC[C@@]1(O)C[C@H](O[C@H]2C[C@H](N(C)C)[C@H](O[C@H]3C[C@H](O)[C@H](OC4CCC(=O)C(C)O4)[C@H](C)O3)[C@H](C)O2)c2c(cc3c(c2O)C(=O)c2c(O)ccc(O)c2C3=O)[C@H]1C(=O)OC (stereo partly drawn) [D-cinerulosyl-2-deoxy-L-fucosyl-L-rhodosaminyl-ε-pyrromycinone]	97	140	164		response vs control in vivo at 0.3 mg/kg (mouse leukemia L1210): 108%; response vs control in vivo at 2.5 mg/kg (mouse leukemia L1210): 130%; response vs control in vivo at 5 mg/kg (mouse leukemia L1210): 90%
CC[C@@]1(O)C[C@H](O[C@H]2C[C@H](N(C)C)[C@H](O[C@H]3C[C@H](O)[C@H](O)[C@H](C)O3)[C@H](C)O2)c2c(cc3c(c2O)C(=O)c2c(O)ccc(O)c2C3=O)[C@H]1C(=O)OC [MA 144-S2]				Same as MA 144-G1	
CC[C@@]1(O)C[C@H](O[C@H]2C[C@H](N(C)C)[C@H](O[C@H]3C[C@H](O)[C@H](O[C@H]4C=CC(=O)[C@H](C)O4)[C@H](C)O3)[C@H](C)O2)c2c(cc3c(c2O)C(=O)c2c(O)cccc2C3=O)[C@H]1C(=O)OC [MA 144-Y]				Same as MA 144-G1	response vs control in vivo at 20 mg/kg (mouse leukemia L1210): 65%
